Laboratory results as given in US7482339B2, “2-Naphthylimino-1,3-thiazine derivative” (Shionogi and Co., Ltd., priority 2003, dated 2009).

Chains of the proteins cited; added tags and fusions are not shown.
UniProt P21554, whole entry: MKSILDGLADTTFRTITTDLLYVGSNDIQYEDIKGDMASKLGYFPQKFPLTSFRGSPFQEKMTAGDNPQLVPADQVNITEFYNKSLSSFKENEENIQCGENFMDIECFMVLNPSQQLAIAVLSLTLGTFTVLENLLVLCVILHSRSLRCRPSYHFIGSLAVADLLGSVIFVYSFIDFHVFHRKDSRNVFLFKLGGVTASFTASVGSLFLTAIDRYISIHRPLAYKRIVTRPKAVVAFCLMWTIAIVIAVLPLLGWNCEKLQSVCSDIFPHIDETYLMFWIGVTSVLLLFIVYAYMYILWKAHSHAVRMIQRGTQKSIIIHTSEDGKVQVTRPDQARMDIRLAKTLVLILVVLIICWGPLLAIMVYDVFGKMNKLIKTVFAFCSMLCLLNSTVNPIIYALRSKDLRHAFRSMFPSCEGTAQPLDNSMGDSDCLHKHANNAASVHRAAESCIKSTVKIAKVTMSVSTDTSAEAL
UniProt P34972, whole entry: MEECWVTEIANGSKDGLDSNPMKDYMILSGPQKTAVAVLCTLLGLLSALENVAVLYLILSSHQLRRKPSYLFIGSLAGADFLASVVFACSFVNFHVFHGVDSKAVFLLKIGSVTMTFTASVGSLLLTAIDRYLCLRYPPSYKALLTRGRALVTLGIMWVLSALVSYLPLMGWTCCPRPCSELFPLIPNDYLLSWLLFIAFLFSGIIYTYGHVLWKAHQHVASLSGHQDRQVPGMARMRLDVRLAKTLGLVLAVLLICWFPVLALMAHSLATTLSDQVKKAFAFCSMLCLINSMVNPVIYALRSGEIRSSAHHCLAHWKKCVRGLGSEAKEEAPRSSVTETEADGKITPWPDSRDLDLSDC

Tests used:
[1] = biological target: T1, human CB1R (Homo sapiens, UniProt P21554); experiment: Human CB receptor binding inhibition ([3H]CP55940), CB1R; conditions: read-out: CB receptor binding inhibition Ki CB1; membranes of CB1R-expressing CHO cells, 0.5 nM [3H]CP55940, 2 hr at 25° C.
[2] = biological target: T2, human CB2R (Homo sapiens, UniProt P34972); experiment: Human CB receptor binding inhibition ([3H]CP55940), CB2R; conditions: read-out: CB receptor binding inhibition Ki CB2; membranes of CB2R-expressing CHO cells, 0.5 nM [3H]CP55940, 2 hr at 25° C.
Protocol: The crude membrane fractions were then prepared from the CB1R or CB2R-expressing CHO cells. Receptor binding assay was performed by incubating the membranes with each test compound and 38,000 dpm [^3H]CP55940 (at a final concentration of 0.5 nM: PerkinElmer Life & Analytical Sciences) in the assay buffer (50 mM Tris-HCl, […], 3 mM MgCl2, pH 7.4) containing 0.5% bovine serum albumin (BSA) for 2 hr at 25° C. The incubation mixture was filtered through 1% polyethylenimine (PEI)-treated GF/C glass filter and washed with 50 mM Tris-HCl (pH 7.4) containing 0.1% BSA. The radioactivity was then counted with a liquid scintillation counter. Nonspecific binding was determined in the presence of 10 μM WIN55212-2 (a CBR agonist described in the patent U.S. Pat. No. 508,122, Sigma), and the specific binding was calculated by subtracting the nonspecific binding from the total binding. The IC50 value for each test compound was determined as the concentration at which 50 % of the specific binding was inhibited. As a consequence of these studies, the Ki values of each test compound were determined from the IC50 value and the Kd vale of [^3H]CP55940.

[3] = biological target: T1, human CB1R; experiment: CBR-mediated suppression of forskolin-stimulated cAMP synthesis, CHO cells expressing CB1R; conditions: read-out: Inhibition of cAMP synthesis IC50 CB1, 4 μM forskolin
Protocol: (§1) The CHO cells expressing human CB1R or CB2R were incubated with test compounds for 15 min. After the incubation, 4 μM forskolin (Sigma) was added and the cells were incubated for 20 min. The reaction was stopped by the addition of 1N HCl and the amount of cAMP in the cell supernatant was measured using an Cyclic AMP kit (CIS bio international) according to the manufacture's protocol. The cAMP amount increased by forskolin compared to that in the absence of forskolin was defined as 100%, and the IC50 value of each test compound was determined as the concentration at which 50% of the forskolin-stimulated cAMP synthesis was inhibited.

[4] = biological target: T2, human CB2R; experiment: CBR-mediated suppression of forskolin-stimulated cAMP synthesis, CHO cells expressing CB2R; conditions: read-out: Inhibition of cAMP synthesis IC50 CB2, 4 μM forskolin
Protocol: as §1

[5] = tested on: formalin-induced hyperalgesia in ICR mice; experiment: Inhibitory effect against formalin-induced hyperalgesia in ICR mice; conditions: male ICR mice, oral administration 2 h prior to formalin; for Inhibitory effect against formalin-induced hyperalgesia (ED50) Second phase: 10 to 30 min after formalin injection; for Inhibitory effect against formalin-induced hyperalgesia (ED50) First phase: first 5 minutes after formalin injection
Protocol: The inhibitory effects of the compounds of the present invention against formalin-induced hyperalgesia were examined in male ICR mice (5 W). Test compounds were dissolved in sesami oil and applied orally 2 h prior to the subcutaneous formalin injection (2% 20 μL) into the right hind paw. In this experiment, observation period was set to 30 min and divided into two parts, the first 5 minutes immediately after the formalin injection (first phase) and 10 to 30 min minutes after the formalin injection (second phase). The strength for pain sensation was evaluated by the total time for licking and biting behavior. The inhibitory effect of the test compounds on such behavior was evaluated and the ED50 value was calculated.

Row | SMILES | pKi [1] | pKi [2] | pIC50 [3] | pIC50 [4] | Inhibitory effect against formalin-induced hyperalgesia (ED50) Second phase [5] | Inhibitory effect against formalin-induced hyperalgesia (ED50) First phase [5]
1 | CSC(=O)N1CC(C(C)C)(C(C)C)CSC1=Nc1cccc2c1CCC2 | 7.64 | 8.66 | 7.60 |  |  | 
2 | CSC(=S)N1CC2(CCCCC2)CSC1=Nc1cccc2c1CCCC2 |  | 9.70 | 8.49 | 9.70 | 4.0 mg/kg | 2.5 mg/kg
3 | CSC(=S)N1CC(C(C)C)(C(C)C)CSC1=Nc1cccc2c1CCCC2 |  |  |  | 9.70 |  | 
4 | CSC(=O)N1CC(C(C)C)(C(C)C)CSC1=Nc1cccc2c1CCCC2 | 7.80 | 8.80 | 8.40 | 8.57 | 3.1 mg/kg | 5.2 mg/kg
5 | CSC(=S)N1CC2(CCCCC2)CSC1=Nc1cccc2c1OCCO2 | 7.52 | 9.00 |  |  |  | 
6 | CSC(=O)N1CC2(CCCCC2)CSC1=Nc1cccc2c1OCCO2 | 7.68 | 9.15 |  |  |  | 

pIC50, pKi: −log10 of the molar value.
